Assays:
Homo sapiens [1] = species on record: Homo sapiens; experiment: Ratio of Ki for human ERbeta LBD to Ki for human ERalpha LBD
Homo sapiens [2] = species on record: Homo sapiens; experiment: Ratio of relative binding affinity for human ERalpha LBD to relative binding affinity to human ERbeta LBD

## COc1cc(/C=C/c2ccc(OS(=O)(=O)C3CC4OC3C(c3ccc(O)cc3)=C4c3ccc(O)cc3)cc2)cc(OC)c1 (configuration not stated)
Homo sapiens [1]
  Ratio Ki: 2.11
Homo sapiens [2]
  Ratio: 1.78

— ChEMBL document CHEMBL4196131 (J Med Chem, 2018)
